According to patent US20180044685A1, “APPLICATION OF SYK SERVING AS THERAPEUTIC TARGET FOR HEPATIC FIBROSIS/HEPATIC CIRRHOSIS” (priority 2015, published 2018):

Experiments:
[1] = tested on: human primary HSCs; details: GS-9973 1 μM, 24, 48 and 72 hours, along with prolongation of treatment time
[2] = target: SYK kinase (Homo sapiens, UniProt P43405); details: compared with Fostamatinib (R788), R406 and PRT062607 HCl; cited from earlier work

Which results are given for `c1cn2cc(-c3ccc4cn[nH]c4c3)nc(Nc3ccc(N4CCOCC4)cc3)c2n1` [GS-9973, Entospletinib]?
inhibition effect on cell proliferation [1]: obvious inhibition effect; activity in inhibiting SYK kinase [2]: most stable and significant activity
